For 59 substances, IC50 results are on record in patent publication US20240360179A1, “STAPLED PEPTIDES AND METHODS THEREOF” (FOG PHARMACEUTICALS, INC., priority 2021, published 2024).

Amino acid sequences for entries named in this document (tags omitted).
UniProt P35222, whole entry: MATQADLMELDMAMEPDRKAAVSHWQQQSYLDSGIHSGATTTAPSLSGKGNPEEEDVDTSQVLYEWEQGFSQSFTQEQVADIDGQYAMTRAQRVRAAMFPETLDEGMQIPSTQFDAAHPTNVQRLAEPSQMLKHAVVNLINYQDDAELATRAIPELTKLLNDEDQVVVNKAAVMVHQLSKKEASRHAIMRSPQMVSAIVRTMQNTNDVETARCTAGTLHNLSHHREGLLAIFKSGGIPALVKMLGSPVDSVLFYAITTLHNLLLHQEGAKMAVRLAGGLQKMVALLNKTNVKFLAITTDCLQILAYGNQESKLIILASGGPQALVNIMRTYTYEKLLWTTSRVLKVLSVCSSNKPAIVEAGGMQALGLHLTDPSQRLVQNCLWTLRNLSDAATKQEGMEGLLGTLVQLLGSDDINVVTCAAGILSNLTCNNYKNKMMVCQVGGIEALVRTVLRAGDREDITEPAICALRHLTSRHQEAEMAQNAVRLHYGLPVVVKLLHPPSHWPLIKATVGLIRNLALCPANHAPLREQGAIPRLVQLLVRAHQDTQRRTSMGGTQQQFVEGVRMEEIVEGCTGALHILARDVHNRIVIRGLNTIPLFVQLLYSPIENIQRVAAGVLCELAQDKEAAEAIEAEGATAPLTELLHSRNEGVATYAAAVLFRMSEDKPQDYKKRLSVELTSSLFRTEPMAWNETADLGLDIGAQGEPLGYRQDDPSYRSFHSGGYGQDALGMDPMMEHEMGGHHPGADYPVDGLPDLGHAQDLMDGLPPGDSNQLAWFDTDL

A value given as a limit tells only on which side of the number the result lay.

One may read the IC50 as the concentration at which inhibition is half-maximal.

This assay addresses T1, full-length B-Catenin (Uniprot ID P35222) (Homo sapiens, UniProt P35222).
T1 construct: 10 nM full-length B-Catenin (Uniprot ID P35222)
The format is binding. To be noted: competition fluorescence polarization; read-out: beta-Catenin FP IC50. On the technique in general: In fluorescence polarisation assays a small probe gives low polarisation when free and higher when bound to something large.
On to “Ac-PL3-Asp-Npg-B5-Asp-3COOHF-Aib-Ala-Phe-[3_3-biPh]hCys-PyrS2-3Thi-BztA-Cys-Ala-NH2 [I-1269]”, for which the IC50 is 50 to 200 nM.
As to “Ac-PL3-Asp-Ile-B5-Asp-3COOHF-Aib-Ala-Phe-Lys*3-PyrS2-Phe-34ClF-GlnR*3-Ser-Ser-Ala-NH2 [I-1354]”, the IC50 was < 50 nM.
Turning to “Ac-PL3-Asp-Npg-B5-Asp-3COOHF-Aib-Ala-Phe-Lys*3-PyrS2-2PhF-34ClF-GlnR*3-Ala-NH2 [I-950]”, the IC50 was 50 to 200 nM.
For the substance “Isovaleryl-PL3-Asp-DipA-B5-Asp-3COOHF-CyLeu-Ala-Phe-Lys*3-PyrS2-3Thi-34ClF-GlnR*3-NH2 [I-1711]”, the 50% inhibitory concentration (IC50) was < 50 nM.
On to “Ac-S5-Glu-Asp-Npg-B5-Glu-3COOHF-Aib-Ala-Phe-Lys*3-PyrS2-Phe-34ClF-GlnR*3-NH2 [I-1679]”, for which the IC50 was 50 to 200 nM.
Turning to “Ac-PL3-Asp-Cha-B5-Asp-3COOHF-Ala-Ala-Phe-Lys*3-PyrS2-2ClF-34ClF-GlnR*3-NH2 [I-1503]”, the concentration for half-maximal inhibition (IC50) was < 50 nM.
On to “Ac-PL3-Asp-Npg-B5-AspSH-3COOHF-Aib-Ala-Phe-Lys*3-PyrS2-3Thi-BztA-GlnR*3-Ala-NH2 [I-1302]”, for which the concentration for half-maximal inhibition (IC50) is 200 to 750 nM.
In the case of “Ac-S5-Ala-Asp-Ile-B5-Asp-Gln-Aib-Ala-Phe-Lys*3-PyrS2-Phe-34ClF-GlnR*3-NH2 [I-1340]”, the IC50 is 200 to 750 nM.
To “Ac-S5-Ala-Asp-Npg-B5-Glu-Asp-Aib-Ala-Phe-Lys*3-PyrS2-3Thi-BztA-GlnR*3-Ala-NH2 [I-1330]” belongs 200 to 750 nM; to “Ac-S5-Glu-Ser-Npg-B5-Asp-3COOHF-Aib-Ala-Phe-Lys*3-PyrS2-Phe-34ClF-GlnR*3-NH2 [I-1678]”, 200 to 750 nM; to “Ac-PL3-Asp-Ile-B5-Asp-3COOHF-Aib-Ala-Phe-Lys*3-PyrS2-Phe-4F3MeF-GlnR*3-NH2 [I-1610]”, < 50 nM.
Regarding “Ac-PL3-Asp-Ile-B5-Asp-3COOHF-Aib-Ala-Phe-1MeK*3-PyrS2-Phe-34ClF-hGlnR*3-NH2 [I-1373]”, the IC50 is < 50 nM.
As to “Ac-PL3-Asp-Npg-B5-Asp-3COOHF-Aib-Ala-Phe-TriAzLys*3-PyrS2-Phe-34ClF-sAla*3-NH2 [I-1092]”, the half-inhibitory concentration (IC50) was < 50 nM.
Consider “Ac-PL3-Asp-Npg-B5-Asp-3COOHF-Aib-Ala-Phe-Lys*3-PyrS2-2PhF-BztA-GlnR*3-Leu-Ser-NH2 [I-952]”, for which the half-inhibitory concentration (IC50) lay in the range of 200 to 750 nM.
Turning to “Ac-PL3-Asp-Ile-B5-Asp-3COOHF-Aib-Ala-Phe-Lys*3-PyrS2-Phe-34ClF-GlnR*3-Thr-Glu-Ala-NH2 [I-1351]”, the concentration for half-maximal inhibition (IC50) was < 50 nM.
On to “4PymCO-PL3-Asp-Npg-B5-Asp-3COOHF-Aib-Ala-Phe-Lys*3-PyrS2-3Thi-BztA-GlnR*3-Ala-NH2 [I-911]”, for which the IC50 is < 50 nM.
As to “Ac-PL3-Asp-Npg-B5-Asp-3COOHF-Aib-Ala-Phe-Lys*3-PyrS2-[2IAPAc]2NH2F-BztA-GlnR*3-Ala-NH2 [I-1668]”, the half-inhibitory concentration (IC50) was < 50 nM.
Consider “Ac-PL3-Asp-Chg-B5-Asp-3COOHF-Aib-Ala-Phe-Lys*3-PyrS2-3Thi-BztA-GlnR*3-Ala-NH2 [I-707]”, for which the IC50 is < 50 nM.
Regarding “Ac-PL3-Asp-Chg-B5-Asp-3COOHF-Aib-Ala-Phe-Lys*3-PyrS2-2ClF-34ClF-GlnR*3-NH2 [I-1505]”, the IC50 was < 50 nM.
Take “Ac-PL3-Asp-DipA-B5-Asp-3COOHF-Aib-Ala-Phe-Lys*3-PyrS2-3Thi-34ClF-GlnR*3-Ala-NH2 [I-1109]”: the IC50 was < 50 nM.
Turning to “Ac-S5-Ala-Asp-DipA-B5-Asp-3COOHF-nLeu-Ala-Phe-Lys*3-PyrS2-Phe-34ClF-GlnR*3-NH2 [I-1688]”, the IC50 was < 50 nM.
Consider “Ac-PL3-Asp-Leu-B5-Asp-3COOHF-GlnR*3-Ala-Phe-Ala-PyrS2-Phe-34ClF-GlnMeBDA*3-NH2 [I-1828]”, for which the IC50 was < 50 nM.
“Ac-PL3-Asp-Leu-B5-Asp-3COOHF-GlnR*3-Ala-Phe-Ala-PyrS2-Phe-34ClF-GlnPipAz*3-NH2 [I-1906]”: the IC50 is < 50 nM.
For the substance “Ac-PL3-Asp-Npg-B5-Asp-3COOHF-Aib-Ala-Phe-Lys*3-PyrS2-Phe-7ClBztA-GlnR*3-NH2 [I-1248]”, the concentration for half-maximal inhibition (IC50) was < 50 nM.
Take “Ac-PL3-Asp-Ile-B5-Asp-3COOHF-Aib-Ala-Phe-Lys*3-PyrS2-Phe-34ClF-GlnR*3-Ala-Ala-[mPEG4]Lys-NH2 [I-1405]”: the half-inhibitory concentration (IC50) is 50 to 200 nM.
The result for “Ac-PL3-Asp-Npg-B5-Asp-TfeGA-Aib-Ala-Phe-Lys*3-PyrS2-2F3MeF-34ClF-GlnR*3-NH2 [I-890]” reads < 50 nM; that for “Ac-PL3-Gln-Npg-B5-Asp-3COOHF-Aib-Ala-Phe-Lys*3-PyrS2-3Thi-BztA-GlnR*3-Ala-NH2 [I-968]”, > 1000 nM.
“Ac-PL3-Asp-Leu-B5-Asp-3COOHF-GlnMeBDA*3-Ala-Phe-Val-PyrS2-Phe-34ClF-GlnR*3-NH2 [I-1826]”: the IC50 is < 50 nM.
With “Ac-PL3-Asp-Npg-B5-Asp-3COOHF-Aib-Ala-Phe-Lys*3-PyrS2-3Thi-BztA-GlnR*3-Val-Ser-Ala-NH2 [I-1478]”, the IC50 is < 50 nM.
To “Ac-PL3-Aad-Npg-B5-Asp-3COOHF-Aib-Ala-Phe-Lys*3-PyrS2-3Thi-BztA-GlnR*3-Ala-NH2 [I-546]” belongs 200 to 750 nM; to “Ac-PL3-Asp-Npg-B5-Asp-3COOHF-Aib-Ala-Phe-Lys*3-PyrS2-3Thi-BztA-GlnR*3-Ala-Ala-Ala-[mPEG16]Lys-NH2 [I-1409]”, < 50 nM.
“Ac-S5-Pro-Asp-DipA-B5-Asp-3COOHF-Aib-Ala-Phe-Lys*3-PyrS1-Phe-34ClF-GlnR*3-NH2 [I-1694]”: the IC50 is < 50 nM.
Take “Ac-PL3-Asp-Npg-B5-Asp-3COOHF-Aib-Ala-Phe-Lys*3-PyrS2-hCbA-BztA-GlnR*3-Val-Glu-Ala-NH2 [I-1345]”: the IC50 is < 50 nM.
As for “Ac-PL3-Asp-Ile-B5-Asp-3COOHF-Aib-Ala-Phe-Lys*3-PyrS2-3Thi-34ClF-GlnR*3-Val-Thr-Ala-NH2 [I-1265]”, the IC50 is < 50 nM.
The result for “Ac-PL3-Asp-Ile-B5-Asp-3COOHF-Ala-Ala-Phe-TriAzOrn*3-PyrS2-Phe-34ClF-sCH2S*3-NH2 [I-1867]” reads < 50 nM; that for “Ac-PL3-Asp-Npg-B5-Asp-3COOHF-Aib-Ala-Phe-Lys*3-PyrS2-DipA-34ClF-GlnR*3-NH2 [I-1532]”, 50 to 200 nM.
Regarding “Ac-PL3-Asp-Chg-B5-Asp-3COOHF-Ala-Ala-Phe-Lys*3-PyrS2-2ClF-BztA-GlnR*3-NH2 [I-1531]”, the 50% inhibitory concentration (IC50) was < 50 nM.
To “Ac-S5-Glu-Asp-Chg-B5-Asp-3COOHF-Aib-Ala-Phe-Lys*3-PyrS2-Phe-34ClF-GlnR*3-NH2 [I-1623]” belongs < 50 nM; to “Ac-S5-Ala-Asn-Npg-B5-Asp-3COOHF-Aib-Ala-Phe-Lys*3-PyrS2-3Thi-BztA-GlnR*3-Ala-NH2 [I-1194]”, 50 to 200 nM; to “Ac-PL3-Asp-Ile-B5-Asp-3COOHF-Ala-Ala-Phe-Lys*3-PyrS1-Phe-34ClF-GlnR*3-NH2 [I-1698]”, < 50 nM.
For the substance “Ac-PL3-Asp-DipA-B5-Asp-3COOHF-CyLeu-Ala-Phe-Lys*3-PyrS2-2F3MeF-BztA-GlnR*3-Pro-NH2 [I-1768]”, the IC50 is < 50 nM.
For the substance “Ac-PL3-Asp-Npg-B5-Asp-3COOHF-Aib-Ala-Phe-[33Oxe]hCys-PyrS2-3Thi-BztA-Cys-Ala-NH2 [I-1276]”, the IC50 is < 50 nM.
For the substance “3PyPrpc-PL3-Asp-Npg-B5-Asp-3COOHF-Aib-Ala-Phe-Lys*3-PyrS2-3Thi-BztA-GlnR*3-Ala-NH2 [I-1072]”, the IC50 was < 50 nM.
Turning to “Ac-PL3-Asp-Npg-B5-Asp-4BOH2F-Aib-Ala-Phe-Lys*3-PyrS2-3Thi-BztA-GlnR*3-Ala-NH2 [I-1189]”, the IC50 lay within 50 to 200 nM.
As for “Ac-PL3-Asp-Npg-B5-Asp-3COOHF-Aib-Ala-Phe-TriAzLys*3-[CO][Ala]PyrSa-3Thi-BztA-sAla*3-Ala-NH2 [I-1126]”, the IC50 was < 50 nM.
As to “Ac-PL3-Asp-Ile-B5-Asp-3COOHF-Aib-Ala-Phe-GlnR*3-PyrS2-Phe-34ClF-dLys*3-Ala-NH2 [I-1778]”, the IC50 was < 50 nM.
With “Ac-PL3-Asp-DipA-B5-Asp-3COOHF-Phe-Ala-Phe-Lys*3-PyrS2-3Thi-34ClF-GlnR*3-Ser-NH2 [I-1116]”, the IC50 was < 50 nM.
To “Ac-PL3-Asp-Ile-B5-Asp-3COOHF-Aib-Ala-Phe-Lys*3-PyrS2-Phe-2ClF-GlnR*3-NH2 [I-1596]” belongs 50 to 200 nM.
The result for “Ac-PL3-Asp-Ile-B5-Asp-3COOHF-Cha-Ala-Phe-Lys*3-PyrS2-3Thi-BztA-GlnR*3-Ala-NH2 [I-731]” reads < 50 nM.
“Ac-PL3-Asp-DipA-B5-Asp-3COOHF-Aib-Ala-Phe-Lys*3-PyrS2-3Thi-34ClF-GlnR*3-Ser-NH2 [I-1110]”: the IC50 was < 50 nM.
Regarding “Ac-PL3-Asp-Npg-B5-Asp-3COOHF-Aib-Ala-Phe-Lys*3-PyrS2-[MorphAc]2NH2F-BztA-GlnR*3-Ala-NH2 [I-1753]”, the IC50 was < 50 nM.
To “Ac-PL3-Asp-Npg-B5-Asp-TfeGA-Aib-Ala-Phe-Lys*3-PyrS2-3Thi-BztA-GlnR*3-Leu-Ser-NH2 [I-877]” belongs < 50 nM; to “Ac-Pro-S5-Glu-Asp-Val-B5-Asp-3COOHF-Aib-Ala-Phe-Lys*3-PyrS1-Phe-34ClF-GlnR*3-NH2 [I-1886]”, < 50 nM.
In the case of “Ac-Pro-Ser-S5-Ala-Asp-Npg-B5-Asp-3COOHF-Aib-Ala-Phe-Lys*3-PyrS2-3Thi-BztA-GlnR*3-Ala [I-1295]”, the IC50 fell in the range of 50 to 200 nM.
Regarding “Ac-PL3-Asp-Npg-B5-Asp-[Malonate]Dap-Aib-Ala-Phe-Lys*3-PyrS2-3Thi-BztA-GlnR*3-Ala-NH2 [I-1432]”, the IC50 is < 50 nM.
On to “Ac-PL3-Asp-Npg-B5-Asp-3COOHF-Aib-Ala-Phe-Lys*3-PyrS2-[5pymCO]2NH2F-BztA-GlnR*3-Ala-NH2 [I-1756]”, for which the half-maximal inhibitory concentration (IC50) is < 50 nM.
For “Ac-PL3-Asp-Npg-B5-Asp-3COOHF-Aib-Ala-Phe-Lys*3-PyrS2-3Thi-BztA-GlnR*3-[mPEG4]Lys-NH2 [I-1181]”, the IC50 is < 50 nM.
On to “Ac-PL3-Asp-Cha-B5-Asp-3COOHF-Aib-Ala-Phe-Lys*3-PyrS2-2ClF-BztA-GlnR*3-Leu-NH2 [I-1641]”, for which the IC50 was < 50 nM.
With “Ac-PL3-Asp-Ile-B5-Asp-3COOHF-Aib-Ala-Phe-1MeK*3-PyrS2-Phe-34ClF-dGlnR*3-NH2 [I-1760]”, the IC50 is < 50 nM.
